Biological target: PDE5 (Mus musculus, UniProt Q8CG03)
Test: PDE5 inhibition, two-step radioactive [3H]cGMP assay
Assay type: biochemical
Conditions: pure compounds; selectivity on PDE5 over PDE6

OCCN(CCO)c1nc(N2CCCCC2)c2nc(N(CCO)CCO)nc(N3CCCCC3)c2n1 [Dipyridamole, dipyridamole]
IC50 ratio PDE6/PDE5: 0.16

— publication PMC4056445 (Journal of ethnopharmacology, 2011)
